From patent US20200368288A1, “Hierarchic Neural Microphysiological System for Brain Function and Disorders” (The Trustees of Columbia University in the City of New York, priority 2018, published 2020)

Test system: NNet preparations
Assay: Chronic ketamine treatment NNet model of schizophrenia pathophysiology, calcium imaging
Settings: ketamine 10 μM final concentration every 24 hours; imaging before and 2 days after

## CNC1(c2ccccc2Cl)CCCCC1=O (stereo not shown) [ketamine]
  neuronal ensembles (clusters of co-active neurons by PCA) identified before treatment: affected
